Reference: patent US12421294B2, “Truncated epiderimal growth factor receptor (EGFRt) for transduced t cell selection” (City of Hope, priority 2009, dated 2025)

System: EGFRt^+ T cells (^51Cr-labeled Line A cells)
Test: Antibody dependent cell mediated cytotoxicity (ADCC) by chromium release, human PBMC effectors
Format: cell-based
Settings: Line A targets pre-incubated with antibody, compared with CD20-specific mAb Rituxan
Protocol: For T cell engraftment, six- to ten-week old NOD/Scid IL-2RγC^null mice are injected i.v. on day 0 with 10^7 T cells (Line C). 2×10^7 irradiated (8000 rads) NS0-GFP:IMPDH2-IL15(IL2ss)_pcDNA3.1(+) (cJ02096) cells are administered i.p. 3 times a week starting on day 0 to provide a systemic supply of human IL-15 in vivo. Bone marrow was harvested from euthanized animals and analyzed by flow cytometry.

cetuximab
ADCC activity (chromium-release): significantly mediate chromium-release
